Data reported in patent US6391897B2, “Biphenyl oxo-acetic acids useful in the treatment of insulin resistance and hyperglycemia” (American Home Products Corporation, priority 1998, dated 2002).

Chains of the proteins cited; added tags and fusions are not shown. Lines headed by an entry give the natural chain unless they say otherwise; changes in a name come on top.
UniProt P18031: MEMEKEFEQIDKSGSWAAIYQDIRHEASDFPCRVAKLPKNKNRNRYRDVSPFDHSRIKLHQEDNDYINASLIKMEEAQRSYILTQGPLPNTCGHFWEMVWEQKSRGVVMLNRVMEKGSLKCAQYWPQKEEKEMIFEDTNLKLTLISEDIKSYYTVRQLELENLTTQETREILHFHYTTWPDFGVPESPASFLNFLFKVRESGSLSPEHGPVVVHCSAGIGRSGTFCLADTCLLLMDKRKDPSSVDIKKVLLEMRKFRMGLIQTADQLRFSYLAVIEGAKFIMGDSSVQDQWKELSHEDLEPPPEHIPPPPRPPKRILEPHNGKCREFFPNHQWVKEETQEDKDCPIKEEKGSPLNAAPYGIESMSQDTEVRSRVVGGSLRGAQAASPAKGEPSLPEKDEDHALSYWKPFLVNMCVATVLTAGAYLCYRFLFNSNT

Experiments:
[1] = target: Human recombinant PTP1B (Homo sapiens, UniProt P18031); assay: Inhibition of tri-phosphorylated insulin receptor dodecaphosphopeptide dephosphorylation by hPTP1B (malachite green); type: biochemical; conditions: for percent of phosphatase control (change) at 2.5 uM: compound at 2.5 uM
[2] = system: rat hepatic microsomal PTPases; assay: Inhibition of tri-phosphorylated insulin receptor dodecaphosphopeptide dephosphorylation by rat hepatic PTPases (malachite green); type: biochemical; conditions: rat hepatic microsomal PTPase activity; compound at 50 μM

“(2R)-2-4′-(2-Benzyl-benzofuarn-3-yl)-3-nitro-biphenyl-4-yloxy]-3-phenyl-propionic acid” was tested, and the IC50 [1] was 231 nM.
With “2-(4′-Benzofuran-3-yl-biphenyl-4-yloxy)-3-phenyl-propionic acid” the “percent of phosphatase control (change) at 2.5 uM” value [1] was −47 (2.5 uM) % and the “% Change from Control” value [2] was −70%.
“(4′-Benzofuran-3-yl-biphenyl-4-yloxy)-acetic acid” was tested, and the “percent of phosphatase control (change) at 2.5 uM” value [1] was −51 (2.5 uM) % and the “% Change from Control” value [2] was −11%.
“(2R)-2-[4′-(2-Benzoyl-benzofuarn-3-yl)-3-nitro-biphenyl-4-yloxy]-3-phenyl-propionic acid” gave an IC50 [1] of 788 nM.
